Data reported in article PMC12617493 (Science Advances, 2025).
Values belong to the molecule of their own block, whether it stands above or below them.

How the values were obtained:
[1] = target: AF647-Osh6 (S. cerevisiae) (UniProt Q02201); test: MST
[2] = target: T1, Osh6 (S. cerevisiae, UniProt Q02201 1-448); test: pull-down; GST constructs (2.5 μM) immobilised on Glutathione Sepharose 4B beads; Osh6, its mutants, Osh4, ORD^Osh3 or ORD^ORP8 added at 2.5 μM; 50 mM tris pH 7.4, 120 mM NaCl, 1 mM MgCl2, 1% TX-100, 1 mM DTT, 10% glycerol; 25°C, 1 hour; bound fraction by SDS-PAGE; conditions: both partners purified
T1 construct: also called Osh6 WT
T1 sequence (looked up): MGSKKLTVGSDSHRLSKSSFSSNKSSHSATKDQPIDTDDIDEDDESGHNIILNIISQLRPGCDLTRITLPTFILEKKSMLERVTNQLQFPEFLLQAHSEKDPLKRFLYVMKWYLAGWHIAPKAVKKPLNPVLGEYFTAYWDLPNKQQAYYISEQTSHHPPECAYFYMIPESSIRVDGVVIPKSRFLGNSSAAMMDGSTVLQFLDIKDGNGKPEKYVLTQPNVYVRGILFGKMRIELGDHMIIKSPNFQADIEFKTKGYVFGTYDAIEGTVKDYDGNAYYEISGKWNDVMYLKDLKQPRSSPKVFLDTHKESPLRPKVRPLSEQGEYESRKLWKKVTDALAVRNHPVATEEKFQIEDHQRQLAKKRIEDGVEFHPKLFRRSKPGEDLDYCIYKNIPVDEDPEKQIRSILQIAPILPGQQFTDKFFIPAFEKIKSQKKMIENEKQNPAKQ

- Kd [1]: 4 µM
Molecule: Ist2[729–768] peptide

- binding result [2]: binds
B1: GST-Ist2[590–768] (domain or fragment, S. cerevisiae, UniProt P38250 590-768, looked up)
chain: SSHDDVANGIVPKHVVNVQNPPKQEVFEKIPSPEFNSNNEKELVQRKGSANEKLHQELGEKQPASSANGYEAHAATHANNDPSSLSSASSPSLSSSSSSSKTGVVKAVDNDTAGSAGKKPLATESTEKRNSLVKVPTVGSYGVAGATLPETIPTSKNYYLRFDEDGKSIRDAKSSAESS
